{
  "source": "patent US11253599B2",
  "about": "“Analgesic preparation with nanocarriers and use thereof” (dated 2022)",
  "key": {"[1]": {"test_system": "rats with unilateral hind paw inflammation", "assay": "Paw pressure threshold (PPT) after intravenous injection, CFA hind paw inflammation"}, "[2]": {"test_system": "rats with unilateral hind paw inflammation", "assay": "Paw pressure threshold (PPT) after intraplantar injection into the inflamed paw, CFA hind paw inflammation", "settings": "i.pl. into inflamed paw, up to 200 μg (as free base), 5-15 min after injection, 4 days after CFA"}, "[3]": {"test_system": "rats with unilateral hind paw inflammation", "assay": "Side effects and toxicity after intravenous injection", "settings": "i.v. 20 mg/kg"}},
  "data": [
    {"compound": "CN(C(=O)Cc1ccc(Cl)c(Cl)c1)[C@@H]1CCCC[C@H]1N1CCCC1", "values": [
      {"measurement": "Site of opioid receptor action (summary of analgesic efficacy)", "setting": "[1]; i.v.", "result": "ubiquitously activates both peripheral and central opioid receptors"},
      {"measurement": "PPT reached (upper limit) in both paws", "setting": "[1]; i.v. 10 mg/kg", "result": "about 160 g"},
      {"measurement": "Analgesic effect (PPT) in inflamed and non-inflamed paws", "setting": "[1]; i.v., up to 10 mg/kg (as free base), from 10 minutes onward", "result": "dose-dependent analgesic effect in both the inflamed and non-inflamed paws"},
      {"measurement": "PPT change (analgesia) in inflamed paws", "setting": "[2]", "result": "Dose-dependent PPT increase (analgesia)"},
      {"measurement": "Doubling of the dose to 20 mg/kg (tolerability)", "setting": "[3]", "result": "not possible for toxicological reasons"}
    ]}
  ]
}
